ChEMBL document CHEMBL2396650, “A potent small-molecule inhibitor of the MDM2-p53 interaction (MI-888) achieved complete and durable tumor regression in mice” (J Med Chem, 2013)

Experiments:
Format in all cases: ADME, Microsome
Liver = test: Half life in mouse liver microsomes
Outline: (§1)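 Half-life determined by incubation in mouse, rat and human liver microsomes; T1/2 in minutes.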

Liver microsomes [1] = test: Half life in human liver microsomes; outline: as §1
Liver microsomes [2] = test: Half life in rat liver microsomes; outline: as §1

t1/2 (Liver): > 1 h
t1/2 (Liver microsomes [1]): 0.888 h
t1/2 (Liver microsomes [2]): > 1 h
Structure (SMILES): CC(C)(C)C[C@@H]1N[C@@H](C(=O)N[C@H]2C[C@H](NS(C)(=O)=O)C2)[C@H](c2cccc(Cl)c2F)[C@]12C(=O)Nc1cc(Cl)ccc12
